What was measured:
SU.86.86 = experiment: In cell dynamic 13C NMR of hyperpolarized [1-13C] NAC at 1T, SU.86.86 cells; type: cell-based, human; settings: SU.86.86 compared with Hs766t cells, FIGS. 2C and 2D
From the text: FIG. 2B is a in cell dynamic ^13C NMR spectra of hyperpolarized [1-^13C] NAC at 1T NMR on 20×10^6 cells of human pancreatic tumor cell lines of SU.86.86 (left) and expanded spectra with 100 times magnifications at 2 seconds after the hyperpolarized [1-^13C] NAC injections in SU.86.86 (right);
In an embodiment, a cell dynamic ^13C NMR spectra of hyperpolarized [1-^13C] NAC at 1T NMR spectrometer on human pancreatic ductal adenocarcinoma (PDAC) cell lines, which have one of the worst prognosises among common cancers and need effective diagnostic approaches, Hs766t (FIG. 2A) and SU.86.86 (FIG. 2B), in both cases, the cell dynamic ^13C-nuclear magnetic resonance (NMR) spectra of the hyperpolarized [1-^13C] N-acetyl cysteine may show three distinct peaks, a major peak at about 176.5 ppm and two peaks at about 176.8 and about 177.5 ppm.

Hs766t tumor xenografts = experiment: Dynamic 13C MR spectra and CSI of hyperpolarized [1-13C] NAC at 3T MRI, Hs766t tumor xenografts; settings: Hs766t xenograft, FIG. 4E
Experimental: All of the animal experiments were conducted in compliance with the Guide for the Care and Use of Laboratory Animal Resources, and experimental protocols were approved by the Animal Care and Use Committee, National Cancer Institute (NCI-CCR-ACUC) (National Research Council, Committee for the Update of the Guide for the Care and Use of Laboratory Animals. Guide for the care and use of laboratory animals. Washington, D.C.: Institute of Laboratory Animal Resources 2011). The human pancreatic ductal adenocarcinoma (PDAC) cell lines, […], and SU.86.86 cells, were purchased from Threshold Pharmaceuticals (Redwood City, Calif.). Human pancreatic tumor inoculated mice were generated by subcutaneous injection of 3×10^5 cells into the right hind legs of mice. Detailed conditions for cell culture and xenograft tumor development were as described previously in K. Yamamoto, J. R. Brender, T. Seki, S. Kishimoto, N. Oshima, R. Choudhuri, S. S. Adler, E. M. Jagoda, K. Saito, N. Devasahayam, P. L. Choyke, J. B. Mitchell, and M. C. Krishna, Cancer Res 2020, 80, 2087-2093, which is incorporated herein in its entirety by reference. […] Both respiration (60-90 breaths per min) and temperature (35-37° C.) were maintained at a normal physiological range and monitored continuously during the animal experiment using the adjusted anesthesia. […]

With `CC(=O)N[C@@H](CS)[13C](=O)O` [[1-^13C] NAC, [1-^13C] N-acetyl cysteine] the “potential for NAC oxidation with glutathione (NAC-GSH/NAC peak intensity ratio over time and area under the curve ratio)” value (SU.86.86) was “higher potential for NAC oxidation with glutathione”, the “distribution of non-converted NAC by chemical shift imaging” value (Hs766t tumor xenografts) was “observed dominantly in the leg area” and the “site of NAC-GSH formation by chemical shift imaging” value (Hs766t tumor xenografts) was “highest in the tumor and lowest in the surrounding muscle and leg regions”.
